How the values were obtained:
[1] = test system: W. pipientis wAlbB in C6/36 (wAlbB) cells; details: 6 doses from 10 to 0.3 μM
[2] = test system: Wolbachia of L. sigmodontis; type: in vivo, Wolbachia of Litomosoides sigmodontis in BALB/c mice; details: standard doses tested

O=C(O)c1cn(C2CC2)c2cc(N3CCNCC3)c(F)cc2c1=O
Dose response behaviour in titration series [1]: activity only at the highest concentration | Effect on Wolbachia load (in words) [2]: did not reduce

CCOC(=O)N1CCC(=C2c3ccc(Cl)cc3CCc3cccnc32)CC1 [Loratadine]
Dose response behaviour in titration series [1]: showed a dose response | Effect on Wolbachia load (in words) [2]: no effect

Source: paper PMC4266796 (International Journal for Parasitology: Drugs and Drug …, 2014)
